Assay results published in PMC10906223, “An orally available compound suppresses glucagon hypersecretion and normalizes hyperglycemia in type 1 diabetes” (JCI Insight, 2024).

Assay: Microsomal stability assay, CD-1 mouse liver microsomes
Format: in vitro ADME
Procedure: A total of 445 μL of the working solution was transferred into prewarmed incubation plates for treated (T60) and control (NCF60) measurements. After preincubation (10 minutes at 37°C with constant shaking), 54 μL was transferred to the blank plate, followed by 6 μL of NADPH and 180 μL quenching solution. In parallel, 5 μL of WCDD301 (100 μM) was added into incubation plates (T60 and NCF60) containing microsomes and mixed thoroughly (3 times). For the NCF60 plate, 50 μL of buffer was added, mixed (thoroughly, 3 times), shaken, and incubated at 37°C for 60 minutes. In the quenching plate T0, quenching solution (180 μL) and NADPH cofactor (6 μL) were added. For T60 plate, 54 μL of the mixture was placed into the quenching plate (for T0 point), followed by adding 44 μL NADPH cofactor with shaking incubation at 37°C for 60 minutes. Quenching solution (180 μL) was added to quenching plates at 5, 15, 30, 45, and 60 minutes, and 60 μL of sample was transferred from T60 plate per time point to the quenching plates. For the NCF60 plates, 60 μL sample from the NCF60 incubation plate was transferred to the quenching plate (containing quenching solution) at the 60-minute time point. After plates were shaken for 10 minutes and centrifuged (1,750g, 20 minutes at 4°C), 80 μL of the supernatant was transferred into 240 μL HPLC water for LC-MS/MS analysis. […]

SMILES: O=C(O)Cc1ccccc1Nc1c(Cl)cccc1Cl [Diclofenac]
- Intrinsic microsomal clearance: 29.2 µL/min/mg
